According to article PMC5681660, “Reduced hepatitis B and D viral entry using clinically applied drugs as novel inhibitors of the bile acid transporter NTCP” (Scientific Reports, 2017):
Structures can show the parent of a compound that is named as a salt.

Target: T1, human NTCP (Homo sapiens, UniProt Q14973)
T1 sequence (Q14973 1-349): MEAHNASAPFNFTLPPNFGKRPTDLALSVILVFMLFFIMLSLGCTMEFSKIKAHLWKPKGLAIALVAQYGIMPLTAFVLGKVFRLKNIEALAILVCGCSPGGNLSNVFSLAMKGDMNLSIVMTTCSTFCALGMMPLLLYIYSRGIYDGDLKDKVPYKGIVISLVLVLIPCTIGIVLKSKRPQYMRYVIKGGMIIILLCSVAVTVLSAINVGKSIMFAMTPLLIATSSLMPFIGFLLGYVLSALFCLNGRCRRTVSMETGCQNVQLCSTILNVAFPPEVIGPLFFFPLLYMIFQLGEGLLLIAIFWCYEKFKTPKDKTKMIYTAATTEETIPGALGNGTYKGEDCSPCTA
Assay: Screening fluorescent competitive Myrcludex B-FITC binding assay (96-well, 10 µM drug)
Conditions: screening Myrcludex B-FITC binding, 10 µM drug; for %NTCP binding: Prestwick library

Structure (SMILES)	B-score binding assay (B-score)	B-score binding assay	%NTCP binding [%]
CCOC(=O)Nc1ccc2c(c1)N(C(=O)CCN1CCOCC1)c1ccccc1S2 [Moricizine hydrochloride]	2.409		
CC(O)(CS(=O)(=O)c1ccc(F)cc1)C(=O)Nc1ccc(C#N)c(C(F)(F)F)c1 (stereo not shown) [Bicalutamide]		-1.492	
CCn1cc(C(=O)[O-])c(=O)c2ccc(C)nc21.[Na+] [Nalidixic acid sodium salt]		-0.349	79.2147
Cc1c(O)c(=O)n(-c2ccccc2)n1C [Antipyrine, 4-hydroxy]		-0.283	
CCC(NC(C)C)C(O)c1ccc(O)c(O)c1.CS(=O)(=O)O (stereo not shown) [Isoetharine mesylate salt]		0.701	108.688
CN(C)CCC[C@@]1(c2ccc(F)cc2)OCc2cc(C#N)ccc21 [Escitalopram oxalate]		-0.472	
COc1cc([C@@H]2c3cc4c(cc3[C@H](O)[C@H]3COC(=O)[C@H]23)OCO4)cc(OC)c1OC [Podophyllotoxin]	2.162		
Cn1c(NCCN(CCO)CCCc2ccc([N+](=O)[O-])cc2)cc(=O)n(C)c1=O [Nifekalant]		-0.814	
O=C(O)CCCc1ccc(N(CCCl)CCCl)cc1 [Chlorambucil]		-1.245	
CCOC(=O)[N-]c1cn(N2CCOCC2)n[o+]1 [Molsidomine]		-1.062	
C[C@@H]1CN(c2c(F)c(N)c3c(=O)c(C(=O)O)cn(C4CC4)c3c2F)C[C@H](C)N1 [Sparfloxacin]		-0.128	
CC(N)CCCC(C)(C)O (stereo not shown) [Heptaminol hydrochloride]	1.772		
C[C@@H](O[C@H]1OCCN(Cc2n[nH]c(=O)[nH]2)[C@H]1c1ccc(F)cc1)c1cc(C(F)(F)F)cc(C(F)(F)F)c1 [Aprepitant]		-0.884	
CNCC(O)c1ccc(O)cc1 (racemic) [(+,-)-Synephrine]		-0.067	77.9292
CCCCOc1cc(C(=O)NCCN(CC)CC)c2ccccc2n1 [Dibucaine]	3.478		
C[C@]12CC[C@H]3C(=CCc4cc(O)ccc43)[C@@H]1CCC2=O [Equilin]		0.223	
Nc1ccc(S(=O)(=O)Nc2ccc(Cl)nn2)cc1 [Sulfachloropyridazine]		-0.75	
CNCC(O)c1ccc(OC(=O)C(C)(C)C)c(OC(=O)C(C)(C)C)c1 (stereo not shown) [Dipivefrin hydrochloride]	2.145		
O=C([O-])c1ccccc1-c1c2cc(Br)c(=O)cc-2oc2[c]([Hg+])c([O-])c(Br)cc12.[Na+].[Na+].[OH-] [Merbromin]		-6.053	
CC(C)[N+](C)(CCOC(=O)C1c2ccccc2Oc2ccccc21)C(C)C [Propantheline bromide]		-0.328	

Continued, in another order:

B-score binding assay (B-score)	B-score binding assay	Structure (SMILES)	%NTCP binding [%]
	-1.838	Nc1nc(Cl)nc2c1ncn2[C@H]1C[C@H](O)[C@@H](CO)O1 [Cladribine]	
	-3.496	CN(C)CCn1nnnc1SCC1=C(C(=O)O)N2C(=O)[C@@H](NC(=O)Cc3csc(N)n3)[C@H]2SC1 [Cefotiam hydrochloride]	
	-0.58	Cl.O=C1OC(CN2CCOCC2)CN1/N=C/c1ccc([N+](=O)[O-])o1 (stereo not shown) [Furaltadone hydrochloride]	86.4472
	-0.546	C[C@@](Cc1ccc(O)c(O)c1)(NN)C(=O)O [Carbidopa]	
	0.823	CCC(C)(C)c1ccc(CC(C)CN2C[C@@H](C)O[C@@H](C)C2)cc1 (stereo partly shown) [Amorolfine hydrochloride]	
	0.235	CCOc1cc(CC(=O)N[C@@H](CC(C)C)c2ccccc2N2CCCCC2)ccc1C(=O)O [Repaglinide]	
	-0.772	CS(=O)(=O)OCCCCOS(C)(=O)=O [Busulfan]	
	-0.451	COc1cc2ncnc(Nc3ccc(F)c(Cl)c3)c2cc1OCCCN1CCOCC1 [Gefitinib]	
	-0.729	C[C@]1(Cn2ccnn2)[C@H](C(=O)O)N2C(=O)C[C@H]2S1(=O)=O [Tazobactam]	
	0.028	CCOCCn1c(N2CCCN(C)CC2)nc2ccccc21 [Emedastine]	
	-0.789	O=C(N[C@H](CO)[C@H](O)c1ccc([N+](=O)[O-])cc1)C(Cl)Cl [Chloramphenicol]	
	-0.677	Clc1ccc(COC(Cn2ccnc2)c2ccc(Cl)cc2Cl)cc1 (stereo not shown) [Econazole nitrate]	
	0.49	C=C1/C(=C\C=C2/CCC[C@]3(C)[C@@H]([C@H](C)/C=C/[C@@H](O)C4CC4)CC[C@@H]23)C[C@@H](O)C[C@@H]1O [Calcipotriene]	
